Data on 1 compound can be found in patent US9867841B2, “Compounds, compositions and methods using E-selectin antagonists for mobilization of hematopoietic cells” (GLYCOMIMETICS, INC., priority 2012, dated 2018).

Data set [1] concerns WBC, lymphocytes, monocytes, eosinophils, and neutrophils in circulation. Nature of the data set: Mobilization of blood cells in CD-1 mice (Example 5, FIG. 5). The class given is in vivo. The note with it: tested form: Na salt.
Data set [2] can be described thus: Tolerability in mice. The conditions noted are these: tested form: Na salt. Type of data set: in vivo.
The subject of data set [3] is neutrophils in the blood. Nature of the data set: Mobilization of neutrophils in mice (Example 4, FIG. 4). The note with it: single intravenous dose of 20, 40, or 60 mg/kg, blood at 2, 3, and 6 hours, tested form: Na salt. As to the method:
FIG. 4 illustrates mobilization of neutrophils by an exemplary E-selectin antagonist, Compound 25. Groups of animals received Compound 25 at doses of 20 mg/kg (Cmpd 25 (20)), 40 mg/kg (Cmpd 25 (40)), or 60 mg/kg (Cmpd 25 (40)). Another group of animals received 3 mg/kg of plerixafor (AMD-3100). Neutrophils were enumerated (K/μl) in blood samples taken at 2, 3, and 6 hours after dosing.
This example describes hematopoietic stem cell mobilization by an exemplary E-selectin antagonist. Groups of mice (16 mice per group) received a single dose of 20, 40, or 60 mg/kg of Compound 25 or 3 mg/kg of plerixafor (also called AMD-3100), which is a CXCR4 antagonist. These compounds were administered once intravenously. A control group of 8 animals received vehicle only. Blood samples were taken at 2, 3, and 6 hours after dosing and analyzed for complete blood count (CBC). Neutrophils were enumerated (K/μl) (i.e., 1000's per microliter) in each sample at each time point.

Take `CCC1CC(C(=O)NCCNC(=O)CCOCCOCCOCCOCCOCCOCCOCCOCCOCCOCCOCCOC)CC(OC2OC(CO)C(O)C(OC(CC3CCCCC3)C(=O)O)C2NC(C)=O)C1OC1OC(C)C(O)C(O)C1O` (stereo not shown): the “time of peak mobilization” value in data set [1] (most cell types, 20, 40 or 60 mg/kg intravenous) came out at 3 h. Further, the “level of total WBC, lymphocytes, monocytes, eosinophils, and neutrophils in circulation” value in data set [1] (single intravenous dose of 20, 40 or 60 mg/kg (all dose levels), blood at 2, 3, and 6 hours) was “increased the level of total WBC, lymphocytes, monocytes, eosinophils, and neutrophils in circulation”. In data set [2], the tolerated dose is 1000 mg/kg. Also, the “number of neutrophils in the blood (mobilization)” value in data set [3] was “increased number of the neutrophils in the blood”.
